{
  "source": "patent US20170197977A9",
  "about": "“COMPOSITIONS AND METHODS FOR TREATING NEURODEGENERATIVE DISEASE” (COGNITION THERAPEUTICS, INC., priority 2011, published 2017)",
  "assay": "In vivo PK, plasma and brain levels",
  "design": "species or system mouse",
  "settings": "mouse",
  "data": [
    {"smiles": "COc1cc(CCC(C)NCc2ccc(C(F)(F)F)cc2)ccc1O", "note": "(stereo not shown) [Compound II]", "values": [
      {"measurement": "Brain penetrance", "value": "highly brain penetrant"}
    ]}
  ]
}
